The values below are quoted from earlier work in patent US6544565B2, “Use of Valeriana for the treatment of Restless Leg Syndrome and related disorders” (Ancile Pharmaceuticals, Inc., priority 1999, dated 2003).

Sequences of proteins named here, by UniProt entry; tags and fusion partners are left off.
UniProt P35462, whole entry: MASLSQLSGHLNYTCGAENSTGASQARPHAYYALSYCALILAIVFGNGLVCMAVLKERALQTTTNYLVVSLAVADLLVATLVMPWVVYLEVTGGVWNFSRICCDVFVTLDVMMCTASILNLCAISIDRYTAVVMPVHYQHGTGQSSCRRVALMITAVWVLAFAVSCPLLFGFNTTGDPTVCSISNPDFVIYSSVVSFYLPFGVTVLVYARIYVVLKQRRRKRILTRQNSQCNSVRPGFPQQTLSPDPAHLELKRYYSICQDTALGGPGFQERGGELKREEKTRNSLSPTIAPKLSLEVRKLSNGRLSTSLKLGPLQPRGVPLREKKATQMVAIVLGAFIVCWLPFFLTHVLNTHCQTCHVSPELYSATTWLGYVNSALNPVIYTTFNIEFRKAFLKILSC

The target in the series is human dopamine D3 receptor (Homo sapiens, UniProt P35462). The settings on record: Reference Data for receptor binding assay; cited from earlier work.

For orientation: IC50 means the concentration that gives 50% inhibition. Broadly, the Ki is the equilibrium dissociation constant of an inhibitor or competing ligand from its target. As to S-(−)-Sulpiride, the IC50 was 0.85 µM, the Ki was 0.048 µM and the nH was 1.0.

As to “7-Chloro-2,3,4,5-tetrahydro-3-methyl-5-phenyl-1H-3-benzazepine-7-ol [SCH-23390]”, the IC50 is above 10 µM.
